Earlier results on one substance are cited in patent US4900748A (priority 1988, dated 1990).

This data set deals with ChE. As to conditions: Brossi et al. 1986; cited from earlier work.

Take (+)-physostigmine: the ChE inhibitory activity entry is recorded as “negligible ChE inhibitory activity”.
